Measured values taken from publication PMC8044163, “Vitamin D and lumisterol derivatives can act on liver X receptors (LXRs)” (Scientific Reports, 2021).

Test system: murine dermal fibroblasts
Assay: RNA-Seq of newborn murine dermal fibroblasts
Type: cell-based, mouse
Conditions: 10^−7 M, 24 h
Method: All animal studies followed guidelines outlined by the NIH Guide for the Care and Use of Laboratory Animals and protocols were approved by the Institutional Animal Care and Use Committee at the NIEHS or the UAB. The study was carried out in compliance with the ARRIVE guidelines (http://www.nc3rs.org.uk/page.asp?id=1357). Skin samples from newborn C57BL/6 mice were collected at the NIEHS. Dermal fibroblasts were isolated from the skin of newborn mice, 1–2 day old. Briefly, we followed the protocols described previously. The skin was washed in PBS, cut into smaller pieces and incubated in 2.4 U/ml of dispase II (Roche) overnight at 4 °C. The dermis was separated from the epidermis and incubated in 0.1% collagenase (Roche) at 4 °C overnight. Next day, it was cut into smaller pieces and incubated for 1 h in 0.25% Trypsin (CellGrow) at 37 °C. Single cell suspension was prepared by pipetting and draining through a cell strainer. After centrifugation, cell pellets were suspended in DMEM medium containing 10% charcoal-stripped fetal bovine serum (cFBS), mouse fibroblasts growth factor (FGF) and 1% antibiotic, and inoculated into tissue culture dishes (Midwest Scientific, TPP). Cells, in early passages, from different mice were pooled together to provide representative samples for experiments. Fibroblasts were cultured in Petri dishes (10 cm in diameter) in DMEM and 10% cFBS and triplicate semi-confluent cultures were treated as described.
Triplicate cultures of murine fibroblasts were used for RNA isolation (RNAeasy Micro kit, Qiagen), the RNA samples were combined for each condition and at least 200 ng of RNA for each sample was used to create libraries for RNA sequencing by BGI Americas Corporation Service (Cambridge, MA)[67]. Quality of RNA and its concentration were determined using Agilent 2100.
The raw sequence FASTQ files were aligned to Gencode’s GRCm38 p4 Release M11 genome using STAR version 2.5.4b (parameters used: –outReadsUnmapped Fastx; –outSAMtype BAM SortedByCoordinate; –outSAMattributes All; –outFilterIntronMotifs RemoveNoncanonicalUnannotated)[69]. The abundance of transcripts was calculated from the alignments using Cufflinks version 2.2.1 (parameters used: –G; –L; –library-type fr-firststrand). Samples were merged using default parameters with Cuffmerge[70],[71]. The differential expression was calculated using Cuffdiff’s default parameters. The raw data have been deposited at the NCBI GEO (GSE145818).

In the case of C=C1/C(=C\C=C2/CCC[C@]3(C)[C@@H]([C@H](C)CCCC(C)(C)O)CC[C@@H]23)C[C@@H](O)C[C@@H]1O [1,25(OH)2D3], the “Adh7 log2(fold_change) vs control” value is reported as 2.0183, the “Aqp11 log2(fold_change) vs control” value is reported as 2.094 and the “Arid3b log2(fold_change) vs control” value is reported as -1.426. For the same compound, the “Bicd1 log2(fold_change) vs control” value was -1.552, the “Btc log2(fold_change) vs control” value was 1.97 and the “Car9 log2(fold_change) vs control” value was -1.495. The “Cbs log2(fold_change) vs control” value was -2.219, the “Ccl4 log2(fold_change) vs control” value was “-inf” and the “Cd68 log2(fold_change) vs control” value was 2.205. The “Cd200 log2(fold_change) vs control” value was -1.825, the “Cherp log2(fold_change) vs control” value was -2.397 and the “Clec2g log2(fold_change) vs control” value was “-inf”. For the same compound, the “Cnnm4 log2(fold_change) vs control” value was -2.074, the “Cox15 log2(fold_change) vs control” value was 1.392 and the “Cpa2 log2(fold_change) vs control” value was -2.331. For the same compound, the “Ctrl log2(fold_change) vs control” value was -1.577, the “Dcun1d1 log2(fold_change) vs control” value was -1.0358 and the “Defb42 log2(fold_change) vs control” value was -1.991. For the same compound, the “Dtx1 log2(fold_change) vs control” value was -2.725, the “Ehf log2(fold_change) vs control” value was -1.559 and the “Ercc2 log2(fold_change) vs control” value was -3.616. The “Erh log2(fold_change) vs control” value was -1.208, the “Fmnl1 log2(fold_change) vs control” value was -4.405 and the “Gys2 log2(fold_change) vs control” value was “-inf”. The “Hist1h2ab log2(fold_change) vs control” value was 1.991, the “Hist1h2bg log2(fold_change) vs control” value was -2.009 and the “Hist1h2bh log2(fold_change) vs control” value was “-inf”. For the same compound, the “Hist1h4c log2(fold_change) vs control” value was “-inf”, the “Isl1 log2(fold_change) vs control” value was -1.839 and the “Krt19 log2(fold_change) vs control” value was 1.562. For the same compound, the “Larp1b log2(fold_change) vs control” value was -3.231, the “Lhx6 log2(fold_change) vs control” value was -1.589 and the “Lsm5 log2(fold_change) vs control” value was -1.432. For the same compound, the “M1ap log2(fold_change) vs control” value was 1.472, the “Med9os log2(fold_change) vs control” value was -1.409 and the “Nckipsd log2(fold_change) vs control” value was 1.89. The “Nr3c2 log2(fold_change) vs control” value was -2.823, the “Nr6a1 log2(fold_change) vs control” value was -2.368 and the “Ntrk3 log2(fold_change) vs control” value was “-inf”. The “Parvg log2(fold_change) vs control” value was -3.218, the “Pde4dip log2(fold_change) vs control” value was -7.609 and the “Psd4 log2(fold_change) vs control” value was -1.114. For the same compound, the “Ptpa log2(fold_change) vs control” value was 1.829, the “Ptpn6 log2(fold_change) vs control” value was -2.246 and the “Rnu3a log2(fold_change) vs control” value was “-inf”. For the same compound, the “Rpph1 log2(fold_change) vs control” value was -1.009, the “Rsad1 log2(fold_change) vs control” value was -1.12 and the “Saa1 log2(fold_change) vs control” value was -2.331. The “Samd12 log2(fold_change) vs control” value was -2.281, the “Scn8a log2(fold_change) vs control” value was -1.158 and the “Sgca log2(fold_change) vs control” value was -1.706. The “Slc15a4 log2(fold_change) vs control” value was -1.459, the “Slc16a5 log2(fold_change) vs control” value was -2.417 and the “Snhg9 log2(fold_change) vs control” value was -2.331. The “St7 log2(fold_change) vs control” value was -1.115, the “Stmn1 log2(fold_change) vs control” value was 1.247 and the “Susd1 log2(fold_change) vs control” value was 1.6295. The “Syt8 log2(fold_change) vs control” value was -1.076, the “Syt12 log2(fold_change) vs control” value was -2.052 and the “Tldc2 log2(fold_change) vs control” value was -1.225. For the same compound, the “Tnnc2 log2(fold_change) vs control” value was “-inf”, the “Unc5c log2(fold_change) vs control” value was -1.742 and the “Wdr17 log2(fold_change) vs control” value was -1.642. For the same compound, the “Zbtb18 log2(fold_change) vs control” value was -2.985 and the “Zfp618 log2(fold_change) vs control” value was -1.519.
